Measured values: ChEMBL document CHEMBL2311273, “Discovery of potent, selective multidrug and toxin extrusion transporter 1 (MATE1, SLC47A1) inhibitors through prescription drug profiling and computational modeling” (J Med Chem, 2013)

How the values were obtained:
[1] = target: T1, Multidrug and toxin extrusion protein 2 (Homo sapiens, UniProt Q86VL8); assay: Inhibition of human MATE2K-mediated ASP+ uptake expressed in HEK293 cells after 1.5 mins by fluorescence assay; type: cell-based
T1 sequence (Q86VL8 whole entry): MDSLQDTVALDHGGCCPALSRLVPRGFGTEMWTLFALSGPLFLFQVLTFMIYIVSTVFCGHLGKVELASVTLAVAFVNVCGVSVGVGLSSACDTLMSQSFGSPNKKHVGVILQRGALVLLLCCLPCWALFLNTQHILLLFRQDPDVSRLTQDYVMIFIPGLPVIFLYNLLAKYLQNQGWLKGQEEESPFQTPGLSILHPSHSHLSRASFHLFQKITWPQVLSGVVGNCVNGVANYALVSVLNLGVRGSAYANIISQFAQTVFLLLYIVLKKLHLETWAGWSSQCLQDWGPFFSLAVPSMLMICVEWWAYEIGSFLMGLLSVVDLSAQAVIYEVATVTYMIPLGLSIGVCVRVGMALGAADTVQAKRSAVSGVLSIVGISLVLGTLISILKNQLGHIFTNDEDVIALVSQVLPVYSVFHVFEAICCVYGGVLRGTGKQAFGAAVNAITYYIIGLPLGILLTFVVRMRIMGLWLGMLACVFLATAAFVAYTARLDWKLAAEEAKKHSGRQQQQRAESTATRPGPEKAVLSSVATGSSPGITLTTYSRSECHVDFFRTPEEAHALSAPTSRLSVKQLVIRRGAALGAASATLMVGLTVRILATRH

[2] = target: T2, Solute carrier family 22 member 2 (Homo sapiens, UniProt O15244); assay: Inhibition of human OCT2-mediated ASP+ uptake expressed in HEK293 cells after 3 mins by fluorescence assay; type: cell-based
T2 sequence (O15244 whole entry): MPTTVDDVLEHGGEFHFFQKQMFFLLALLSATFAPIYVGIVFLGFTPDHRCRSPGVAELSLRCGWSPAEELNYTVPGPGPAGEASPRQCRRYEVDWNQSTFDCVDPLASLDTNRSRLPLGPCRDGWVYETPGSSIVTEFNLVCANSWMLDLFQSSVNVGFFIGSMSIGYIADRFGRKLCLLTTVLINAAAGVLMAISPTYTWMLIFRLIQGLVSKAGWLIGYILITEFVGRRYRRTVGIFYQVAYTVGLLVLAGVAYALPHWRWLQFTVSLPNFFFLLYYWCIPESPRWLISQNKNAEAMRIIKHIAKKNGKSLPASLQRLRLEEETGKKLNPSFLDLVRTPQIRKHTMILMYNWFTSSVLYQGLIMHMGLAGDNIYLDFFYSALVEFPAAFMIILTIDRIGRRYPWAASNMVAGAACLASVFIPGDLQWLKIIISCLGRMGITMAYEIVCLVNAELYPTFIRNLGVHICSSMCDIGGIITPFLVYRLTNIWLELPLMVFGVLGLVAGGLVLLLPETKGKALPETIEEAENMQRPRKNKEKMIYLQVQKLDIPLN

[3] = target: T3, Multidrug and toxin extrusion protein 1 (Homo sapiens, UniProt Q96FL8); assay: Inhibition of human MATE1-mediated ASP+ uptake expressed in HEK293 cells after 1.5 mins by fluorescence assay; type: cell-based
T3 sequence (Q96FL8 whole entry): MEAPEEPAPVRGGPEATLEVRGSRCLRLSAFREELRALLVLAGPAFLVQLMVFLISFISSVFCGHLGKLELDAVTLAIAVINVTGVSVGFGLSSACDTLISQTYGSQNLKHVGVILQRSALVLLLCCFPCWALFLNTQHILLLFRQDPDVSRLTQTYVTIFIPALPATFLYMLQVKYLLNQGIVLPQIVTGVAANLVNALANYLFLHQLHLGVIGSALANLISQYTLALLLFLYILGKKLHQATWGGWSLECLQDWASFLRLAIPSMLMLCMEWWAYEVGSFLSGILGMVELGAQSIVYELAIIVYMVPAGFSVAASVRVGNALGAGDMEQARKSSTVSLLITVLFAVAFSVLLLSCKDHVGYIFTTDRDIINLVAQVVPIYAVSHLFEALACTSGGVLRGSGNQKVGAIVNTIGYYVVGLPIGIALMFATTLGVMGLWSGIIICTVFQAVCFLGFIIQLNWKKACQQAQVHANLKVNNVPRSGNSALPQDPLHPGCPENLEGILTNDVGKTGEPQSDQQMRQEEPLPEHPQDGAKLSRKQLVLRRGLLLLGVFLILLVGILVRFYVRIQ

[4] = target: T3, Multidrug and toxin extrusion protein 1; assay: Inhibition of human MATE1-mediated [14]-metformin uptake expressed in HEK293 cells after 1.5 mins by scintillation counting analysis; type: cell-based
[5] = target: T3, Multidrug and toxin extrusion protein 1; assay: Inhibition of human MATE1-mediated [14]-metformin uptake expressed in polarized MDCK2 cells after 5 mins by liquid scintillation counting analysis; type: cell-based, MDCK-II

| Structure (SMILES) | IC50 [1] [µM] | IC50 [2] [µM] | IC50 [3] [µM] | IC50 [4] [nM] | IC50 [5] [nM] |
| --- | --- | --- | --- | --- | --- |
| O=C1CCc2ccc(OCCCCN3CCN(c4cccc(Cl)c4Cl)CC3)cc2N1 [ARIPIPRAZOLE] | > 500 | 239 | 130 | – | – |
| Cc1nccn1CC1CCc2c(c3ccccc3n2C)C1=O (centres undefined) [ONDANSETRON] | – | – | – | 30 | < 10 |
| COc1cc2nc(N3CCN(C(=O)c4ccco4)CC3)nc(N)c2cc1OC [PRAZOSIN] | – | 13.6 | – | – | – |
| Cc1nc2n(c(=O)c1CCN1CCC(c3noc4cc(F)ccc34)CC1)CCCC2 [RISPERIDONE] | 291 | 11 | 1.6 | – | – |
